In patent US6387936B1, “Combinations of riluzole and levodopa for the treatment of Parkinson's disease” (Aventis Pharma S.A., priority 1998, dated 2002):
“And” between values parts separate entries of the source, which are not always exact repeats. Equal entries are not always repeated.

Tested on: parkinsonian marmosets (MPTP)
Assay: Dyskinesic score in MPTP-treated marmosets under chronic L-DOPA
Type: in vivo, Callithrix jacchus
Parameters: Total dyskinesic score, individual values: scale not given here
Settings: for Total dyskinesic score, individual values: riluzole 2 × 10 mg/kg p.o. + L-DOPA (Group 2), marmosets 4-6, 10 mg/kg
Description: The marmosets have free access to water and have available each day 35 g of food rich in carbohydrates, proteins and vitamins mixed with water, milk and sugar and also fresh fruit.
All the animals receive 3 injections of 2 mg/kg of MPTP by the subcutaneous route, on days 1, 7 and 32. On day 32, the animals are divided into 2 groups.
The dyskinesic score is determined according to a number of parameters and each with a different degree of intensity: […]

Nc1nc2ccc(OC(F)(F)F)cc2s1 [riluzole, 2-amino-6-trifluoromethoxybenzo-thiazole]
Effect on dyskinesias induced by L-DOPA (in words) (riluzole 10 mg/kg oral, twice per day, day 57 to day 104): reduces the dyskinesias induced by L-DOPA
Total dyskinesic score, individual values (day 57 after 1st MPTP, 30 min after 1st daily L-DOPA): 3 (2×) and 1
Total dyskinesic score, individual values (day 57 after 1st MPTP, 2 h after 1st daily L-DOPA): 3 (2×) and 0
Total dyskinesic score, individual values (day 60 after 1st MPTP, 30 min after 1st daily L-DOPA): 3 (2×) and 1
Total dyskinesic score, individual values (day 60 after 1st MPTP, 2 h after 1st daily L-DOPA): 2 and 3 and 1
Total dyskinesic score, individual values (day 67 after 1st MPTP, 30 min after 1st daily L-DOPA): 3 (2×) and 1
Total dyskinesic score, individual values (day 67 after 1st MPTP, 2 h after 1st daily L-DOPA): 3 (2×) and 1
Total dyskinesic score, individual values (day 104 after 1st MPTP, 30 min after 1st daily L-DOPA): 1 and 3 (2×)
Total dyskinesic score, individual values (day 104 after 1st MPTP, 2 h after 1st daily L-DOPA): 1 and 3 (2×)
